As usually defined, the Ki is a measure of affinity in units of concentration, obtained from inhibition or displacement. A lower Ki goes with tighter binding.

Test [1] has as its target T1, ATP-sensitive inward rectifier potassium channel 1 (Homo sapiens, UniProt P48048).
T1 sequence (P48048 whole entry): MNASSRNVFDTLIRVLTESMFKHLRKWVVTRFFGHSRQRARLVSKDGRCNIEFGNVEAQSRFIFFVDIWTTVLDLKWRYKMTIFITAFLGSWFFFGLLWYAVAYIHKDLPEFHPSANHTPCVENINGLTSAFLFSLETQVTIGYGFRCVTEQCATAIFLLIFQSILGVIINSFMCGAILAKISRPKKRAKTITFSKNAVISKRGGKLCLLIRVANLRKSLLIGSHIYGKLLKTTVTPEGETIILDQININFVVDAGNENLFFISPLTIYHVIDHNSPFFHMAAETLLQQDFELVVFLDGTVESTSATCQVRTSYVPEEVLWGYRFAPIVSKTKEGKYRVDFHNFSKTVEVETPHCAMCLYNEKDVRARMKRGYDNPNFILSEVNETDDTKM
As to the kind of experiment: Inhibition of ROMK (unknown origin).

Another test deals with T2, Kir3.1/Kir3.4 (Homo sapiens, UniProt P48544+P48549).
T2 sequence (P48549 whole entry): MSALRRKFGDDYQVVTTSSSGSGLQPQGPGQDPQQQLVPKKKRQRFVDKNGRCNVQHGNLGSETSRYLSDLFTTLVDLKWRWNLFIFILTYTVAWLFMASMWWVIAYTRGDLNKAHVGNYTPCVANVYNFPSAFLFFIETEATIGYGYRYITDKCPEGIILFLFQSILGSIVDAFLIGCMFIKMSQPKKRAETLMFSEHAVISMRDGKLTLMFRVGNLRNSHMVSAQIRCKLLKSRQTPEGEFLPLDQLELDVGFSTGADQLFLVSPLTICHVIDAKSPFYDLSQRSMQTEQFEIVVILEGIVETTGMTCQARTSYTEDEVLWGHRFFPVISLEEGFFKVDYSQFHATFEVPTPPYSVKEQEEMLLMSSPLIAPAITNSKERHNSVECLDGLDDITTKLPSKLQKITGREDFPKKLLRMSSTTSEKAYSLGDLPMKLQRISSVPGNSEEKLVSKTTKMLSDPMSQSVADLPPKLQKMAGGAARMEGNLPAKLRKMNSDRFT
T2 sequence (P48544 whole entry): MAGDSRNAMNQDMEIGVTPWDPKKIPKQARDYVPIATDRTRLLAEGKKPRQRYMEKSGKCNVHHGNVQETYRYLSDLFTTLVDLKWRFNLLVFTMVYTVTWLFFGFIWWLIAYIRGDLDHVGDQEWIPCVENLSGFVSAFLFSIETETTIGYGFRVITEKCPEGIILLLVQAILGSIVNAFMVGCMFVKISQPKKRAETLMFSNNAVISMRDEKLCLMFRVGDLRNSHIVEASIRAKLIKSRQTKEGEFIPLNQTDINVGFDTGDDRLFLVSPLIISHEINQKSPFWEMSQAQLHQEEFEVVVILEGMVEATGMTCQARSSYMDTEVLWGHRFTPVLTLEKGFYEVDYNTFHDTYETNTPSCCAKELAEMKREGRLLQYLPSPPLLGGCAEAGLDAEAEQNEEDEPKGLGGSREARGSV
The test can be described thus: Inhibition GIRK1/4 (unknown origin). The test is classed as protein-complex assay.

For the compound `CC[C@H](C)[C@@H]1NC(=O)[C@H](CCCNC(=N)N)NC(=O)[C@H](CC(N)=O)NC(=O)[C@@H]2CSSC[C@@H](C(=O)NCC(=O)N[C@@H](CCCCN)C(=O)N[C@@H](CCCCN)C(N)=O)NC(=O)[C@H](CCCCN)NC(=O)[C@H](CCCCN)NC(=O)[C@H](Cc3c[nH]c4ccccc34)NC(=O)[C@H](CSSC[C@H](NC(=O)[C@H](CC(C)C)NC(=O)[C@H](C)N)C(=O)N[C@@H](CC(N)=O)C(=O)N2)NC(=O)[C@H](CCSC)NC(=O)[C@H](Cc2c[nH]cn2)NC(=O)[C@@H]2CCCN2C(=O)[C@H]([C@@H](C)CC)NC(=O)[C@H]([C@@H](C)CC)NC1=O`, the inhibitory constant (Ki) in test [1] is 2 nM; at Kir3.1/Kir3.4, 8.2 nM.

The values above are taken from ChEMBL document CHEMBL4321786, “Discovery of Small Molecule Renal Outer Medullary Potassium (ROMK) Channel Inhibitors: A Brief History of Medicinal Chemistry Approaches To Develop Novel Diuretic Therapeutics” (J Med Chem, 2019).
